Laboratory results taken from US9688669B2, “Oxazolidinones as modulators of mGluR5” (BRISTOL-MYERS SQUIBB COMPANY, priority 2013, dated 2017).

By UniProt entry, the sequences of proteins in these tests, tags left out. Chains listed by the source or under a name are the forms on record and can include a tag or linker.
UniProt P41594, with tags, fused parts or gaps limits assumed: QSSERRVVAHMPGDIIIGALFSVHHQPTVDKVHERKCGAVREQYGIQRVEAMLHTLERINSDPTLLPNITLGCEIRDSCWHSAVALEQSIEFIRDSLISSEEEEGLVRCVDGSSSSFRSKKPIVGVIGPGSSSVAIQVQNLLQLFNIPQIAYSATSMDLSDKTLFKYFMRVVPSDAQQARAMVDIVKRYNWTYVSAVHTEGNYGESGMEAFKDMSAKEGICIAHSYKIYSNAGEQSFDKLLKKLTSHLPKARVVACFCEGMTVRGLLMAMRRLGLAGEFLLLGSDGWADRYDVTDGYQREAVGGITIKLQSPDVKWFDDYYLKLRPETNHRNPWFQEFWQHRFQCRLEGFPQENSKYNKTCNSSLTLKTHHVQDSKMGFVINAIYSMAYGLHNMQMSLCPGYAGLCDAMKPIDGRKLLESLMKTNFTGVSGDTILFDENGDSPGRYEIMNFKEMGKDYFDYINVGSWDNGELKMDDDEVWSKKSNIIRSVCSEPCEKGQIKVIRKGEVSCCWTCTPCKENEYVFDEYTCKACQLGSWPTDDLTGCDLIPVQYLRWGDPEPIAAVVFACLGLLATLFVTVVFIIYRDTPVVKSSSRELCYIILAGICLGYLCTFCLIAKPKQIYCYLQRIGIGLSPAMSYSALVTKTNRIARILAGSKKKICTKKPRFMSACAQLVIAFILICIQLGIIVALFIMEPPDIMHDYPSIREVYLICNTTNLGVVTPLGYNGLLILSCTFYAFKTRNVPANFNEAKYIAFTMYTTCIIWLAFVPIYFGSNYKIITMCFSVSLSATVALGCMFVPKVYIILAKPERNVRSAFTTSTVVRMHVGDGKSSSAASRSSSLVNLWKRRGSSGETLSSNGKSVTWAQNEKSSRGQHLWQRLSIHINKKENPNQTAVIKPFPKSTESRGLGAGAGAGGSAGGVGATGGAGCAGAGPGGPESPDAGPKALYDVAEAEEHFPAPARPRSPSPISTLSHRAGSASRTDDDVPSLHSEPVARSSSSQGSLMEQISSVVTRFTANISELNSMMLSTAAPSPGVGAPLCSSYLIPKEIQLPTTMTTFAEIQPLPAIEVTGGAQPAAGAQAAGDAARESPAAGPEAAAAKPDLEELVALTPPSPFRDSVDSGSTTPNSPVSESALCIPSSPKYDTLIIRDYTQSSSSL

Biological target: human mGluR5A (Homo sapiens (Human), UniProt P41594)
Assay: mGluR5 FLIPR Assay
Format: cell-based
Conditions: read-out: mGluR5 EC50, positive modulator activity, HEK293 (ZF) cells with human mGluR5A and rat GLAST, Ca++ response to ~EC10 l-glutamate

O=C1N[C@H](c2cncc(C#CCCCCO)c2)[C@@H](c2cccc(F)c2)O1
EC50: 26 nM
